Laboratory results: ChEMBL document CHEMBL1155432 (Bioorg Med Chem Lett, 2010)

Target: T1, Macrophage migration inhibitory factor (Homo sapiens, UniProt P14174)
T1 sequence (P14174 whole entry): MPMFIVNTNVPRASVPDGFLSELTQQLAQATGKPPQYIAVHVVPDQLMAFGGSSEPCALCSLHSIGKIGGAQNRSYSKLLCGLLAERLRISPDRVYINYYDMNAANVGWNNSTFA
Assay: Inhibition of MIF

IC50: 38 nM
Structure (SMILES): O=c1c(-c2ccc(O)c(O)c2)coc2ccccc12
